Literature values as cited in publication PMC3729432.

Target: FRB FRB (Homo sapiens) (UniProt P42345)
Test: fluorescence polarization

Substance: FKBP12 (from UniProt P62942)
- Kd: 6.2 nM
